# In publication PMC7466261, “In Silico and In Vitro Analysis of Multifunctionality of Animal Food-Derived Peptides” (Foods, 2020):
# Chains of the proteins cited; added tags and fusions are not shown. Lines headed by an entry give the natural chain unless they say otherwise; changes in a name come on top.
# UniProt P02662: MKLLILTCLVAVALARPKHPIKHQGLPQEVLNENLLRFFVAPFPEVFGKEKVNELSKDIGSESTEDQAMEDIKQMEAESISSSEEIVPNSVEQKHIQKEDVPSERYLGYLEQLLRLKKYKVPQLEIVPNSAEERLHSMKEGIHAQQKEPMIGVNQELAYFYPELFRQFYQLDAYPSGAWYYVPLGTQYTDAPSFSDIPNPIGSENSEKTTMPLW
# Tests used:
# [1] = Oxygen radical absorbance capacity (ORAC)-FL assay; settings: mean ± SD
# Procedure: An oxygen radical absorbance capacity (ORAC)-FL assay was used based on the protocol previously optimized. The reaction was performed at 37 °C in 75 mM phosphate buffer (pH 7.4). The final assay mixture volume was 200 µL, containing 70 nM FL, 12 mM AAPH, and antioxidant [(Trolox, 1–8 µM) or sample (at different concentrations)]. Fluorescence was measured during 137 min in a FLUOstar OPTIMA plate reader (BMG Labtech) with 485 nm excitation and 520 nm emission filters. The equipment was controlled by the FLUOstar Control ver. 1.32 R2 software for fluorescence measurement. Samples were analyzed in triplicate. The final ORAC-FL value was expressed as μmol Trolox equivalents (TE) per μmol peptide.
# ABTS assay (TEAC) = settings: mean ± SD
# Procedure: Antioxidant activity was measured using a previously optimized method with some modifications. A mixture of 7 mM ABTS stock solution and 2.45 mM potassium persulfate was kept in the dark at room temperature for 12-16 h to form the ABTS radical cation (ABTS^•+). The ABTS^•+ solution was diluted in 5 mM of phosphate buffer solution (PBS) (pH 7.4) to an absorbance of 0.70 ± 0.02 at 734 nm at 30 °C. Two mL of diluted ABTS^•+ solution were mixed with 20 μL of sample or Trolox (0–0.015 μmol), and the absorbance was recorded at 734 nm after 10 min incubation at 30 °C. The Trolox equivalent antioxidant capacity (TEAC) value was expressed as μmol TE per μmol peptide. Each sample was analyzed in triplicate.
# [2] = MBPDB; cited from earlier work
substance,measurement,setting,value
"RY: synthetic peptide, αS1-casein f(90–91) (UniProt P02662 105-106, looked up, fragment)",Antioxidant Activity ORAC,[1],1.83 ± 0.13 µmol TE/µmol peptide
same,Antioxidant Activity TEAC,ABTS assay (TEAC),1.38 ± 0.03 µmol TE/µmol peptide
same,ORAC,[2],ORAC = 1.94 µmol TE/µmol peptide **
